{"source": "ChEMBL document CHEMBL4400563", "about": "“Discovery of a small molecule RXFP3/4 agonist that increases food intake in rats upon acute central administration” (Bioorg Med Chem Lett, 2019)", "key": {"[1]": {"target": "T1, Relaxin-3 receptor 1 (Homo sapiens) (UniProt Q9NSD7)", "T1 sequence (whole entry)": "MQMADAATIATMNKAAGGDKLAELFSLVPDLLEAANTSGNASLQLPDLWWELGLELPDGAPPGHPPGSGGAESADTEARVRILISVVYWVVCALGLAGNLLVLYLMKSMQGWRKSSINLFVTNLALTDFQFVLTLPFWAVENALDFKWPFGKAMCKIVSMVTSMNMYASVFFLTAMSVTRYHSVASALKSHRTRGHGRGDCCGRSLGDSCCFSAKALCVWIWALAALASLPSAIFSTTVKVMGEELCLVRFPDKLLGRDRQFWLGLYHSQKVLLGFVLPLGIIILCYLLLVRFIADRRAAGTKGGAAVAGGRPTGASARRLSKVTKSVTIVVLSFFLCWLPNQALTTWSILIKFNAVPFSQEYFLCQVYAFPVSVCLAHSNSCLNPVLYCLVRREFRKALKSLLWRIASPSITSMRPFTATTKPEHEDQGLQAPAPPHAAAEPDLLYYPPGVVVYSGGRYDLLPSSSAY", "test": "Agonist activity at human RXFP3 expressed in CHOK1 cells assessed as inhibition of forskolin-stimulated intracellular cAMP accumulation preincubated for 30 mins followed by forskolin-stimulation and measured after 30 mins by HTRF assay relative to relaxin-3", "type": "functional, cell-based"}, "[2]": {"target": "T2, Relaxin-3 receptor 1 (Homo sapiens, UniProt Q9NSD7)", "T2 sequence (Q9NSD7 whole entry)": "T1 sequence (whole entry)", "test": "Displacement of [125I]-R3/I5 from human RXFP3 expressed in CHOK1 cell membranes by radioligand binding assay", "type": "cell-based"}}}
{"compound": "COc1cc(C)c2[nH]cc(/C=N/NC(=N)NCCc3ccc(Cl)c(Cl)c3)c2c1", "values": [{"measurement": "Emax", "setting": "[1]", "value": "97 to 97.3", "unit": "%"}, {"measurement": "Ki", "setting": "[2]", "value": 1.7, "unit": "µM"}]}
